Measured values taken from US9556160B2, “Guanidine compound” (Astellas Pharma Inc., priority 2011, dated 2017).

By UniProt entry, the sequences of proteins in these tests, tags left out. Where a name states a change or a piece, a line headed by the entry shows the natural chain unless it says otherwise.
UniProt Q16853: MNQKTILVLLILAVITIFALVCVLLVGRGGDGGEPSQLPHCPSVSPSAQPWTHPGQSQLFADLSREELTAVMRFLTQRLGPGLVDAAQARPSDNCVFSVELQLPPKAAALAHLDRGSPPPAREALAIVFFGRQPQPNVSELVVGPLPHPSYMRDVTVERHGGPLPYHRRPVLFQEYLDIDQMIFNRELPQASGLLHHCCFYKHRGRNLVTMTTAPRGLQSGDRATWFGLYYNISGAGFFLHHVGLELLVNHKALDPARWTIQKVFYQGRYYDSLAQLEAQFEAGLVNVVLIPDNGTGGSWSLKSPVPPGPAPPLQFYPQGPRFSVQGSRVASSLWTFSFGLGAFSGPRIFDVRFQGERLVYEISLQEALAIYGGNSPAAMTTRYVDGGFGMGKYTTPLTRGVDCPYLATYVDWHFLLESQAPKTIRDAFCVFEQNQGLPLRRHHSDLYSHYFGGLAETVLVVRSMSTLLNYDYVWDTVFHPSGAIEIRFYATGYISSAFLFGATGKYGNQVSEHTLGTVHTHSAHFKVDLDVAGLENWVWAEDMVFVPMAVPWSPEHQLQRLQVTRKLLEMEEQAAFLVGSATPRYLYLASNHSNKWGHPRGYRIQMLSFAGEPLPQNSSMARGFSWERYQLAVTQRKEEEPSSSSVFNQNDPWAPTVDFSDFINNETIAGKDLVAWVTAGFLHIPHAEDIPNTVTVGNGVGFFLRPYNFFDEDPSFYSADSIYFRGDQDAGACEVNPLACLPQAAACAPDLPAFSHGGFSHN
UniProt O08590: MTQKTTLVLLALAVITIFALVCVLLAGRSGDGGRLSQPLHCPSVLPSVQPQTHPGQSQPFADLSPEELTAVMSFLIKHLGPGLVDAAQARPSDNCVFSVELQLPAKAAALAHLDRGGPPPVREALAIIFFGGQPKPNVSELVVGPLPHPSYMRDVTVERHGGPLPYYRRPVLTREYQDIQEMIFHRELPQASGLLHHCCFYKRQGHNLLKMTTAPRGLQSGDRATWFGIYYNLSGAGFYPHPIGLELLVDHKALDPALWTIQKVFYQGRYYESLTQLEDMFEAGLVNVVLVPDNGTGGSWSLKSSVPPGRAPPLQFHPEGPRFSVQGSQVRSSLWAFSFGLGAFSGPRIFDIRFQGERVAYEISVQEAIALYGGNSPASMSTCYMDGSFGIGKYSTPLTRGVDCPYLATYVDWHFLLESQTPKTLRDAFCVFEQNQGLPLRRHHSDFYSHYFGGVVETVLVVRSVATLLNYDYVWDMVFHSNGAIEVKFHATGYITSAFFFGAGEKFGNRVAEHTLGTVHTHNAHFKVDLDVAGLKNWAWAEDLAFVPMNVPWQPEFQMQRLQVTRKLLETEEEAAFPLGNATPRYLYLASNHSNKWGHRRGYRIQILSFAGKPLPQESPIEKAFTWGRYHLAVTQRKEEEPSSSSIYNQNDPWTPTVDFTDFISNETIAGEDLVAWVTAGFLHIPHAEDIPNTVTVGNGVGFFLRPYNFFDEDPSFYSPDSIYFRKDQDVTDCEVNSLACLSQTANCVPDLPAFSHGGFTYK

Experiments:
[1] = molecular target: human VAP-1 enzyme (SSAO) (Homo sapiens (Human), UniProt Q16853); assay: Inhibitory effect on human VAP-1 enzyme (SSAO) activity, radiochemistry-enzymatic assay with 14C-benzylamine; type: biochemical; details: CHO-expressed human VAP-1, 14C-benzylamine 1×10^−5 mol/L
Method: (§1) After homogenizing CHO (Chinese Hamster Ovary) cells stably expressing a human VAP-1 enzyme (SSAO) in a 50 mM phosphate buffer containing 1% NP-40, an enzyme suspension was obtained by taking the supernatant obtained by centrifugation. The enzyme suspension was preincubated with the compound of the present invention in a 96-well microplate at room temperature for 30 minutes. Subsequently, the enzyme suspension was incubated with ^14C-benzylamine (a final concentration of 1×10^−5 mol/L) to a final volume of […] at 37° C. for 1 hour. The enzymatic reaction was stopped by the addition of 2 mol/L (50 pt) of citric acid.

[2] = tested on: VAP-1 enzyme (SSAO) activity in rat plasma; assay: Inhibitory effect on rat VAP-1 enzyme (SSAO) activity in rat plasma after oral administration; type: in vivo, Wistar male rats; details: rat plasma VAP-1 activity, oral 0.3 mg/kg; for Inhibition Ratio (%) 1 h: 1 h after administration; for Inhibition Ratio (%) 3 h: 3 h after administration; for Inhibition Ratio (%) 6 h: 6 h after administration; for Inhibition Ratio (%) 24 h: 24 h after administration
Method: Eight-week to twelve-week Wistar male rats were fasted for 20 hours, and orally administered with a test drug ([…]). Heparin blood collection from the tail vein was performed immediately before the administration, and at 1 h, 3 h, 6 h, 12 h, or 24 h after the administration. The resulting blood was subjected to centrifugation at 14000 rpm for 5 minutes to separate plasma, and the VAP-1 enzyme activity in the resulting plasma was measured by a radio-enzyme assay method.
For the radio-enzyme assay method, ^14C-benzylamine which is a synthetic substrate (10 μM) was reacted with the resulting plasma at 37° C., and the resulting metabolite was extracted with a mixture of toluene/ethyl acetate. The radioactivity was measured and taken as a VAP-1 enzyme activity in the plasma. The effect of the test drug was calculated from the inhibitory ratio (%) of the VAP-1 activity after the administration of the test drug relative to the VAP-1 activity in the plasma immediately before the administration.

[3] = molecular target: rat VAP-1 enzyme (SSAO) (Rattus norvegicus (Rat), UniProt O08590); assay: Inhibitory effect on rat VAP-1 enzyme (SSAO) activity, radiochemistry-enzymatic assay with 14C-benzylamine; type: biochemical; details: CHO-expressed rat VAP-1, 14C-benzylamine 1×10^−5 mol/L
Method: as §1, with “rat” for “human”, “μL)” for “pt)”, “acid. The oxidation products were extracted directly in a 200 μL toluene scintillator, and the radioactivity was measured with a scintillation spectrometer.” for “acid.”

Compound	IC50 [1] [nM]	Inhibition Ratio (%) 1 h [2] [%]	Inhibition Ratio (%) 3 h [2] [%]	Inhibition Ratio (%) 6 h [2] [%]	Inhibition Ratio (%) 24 h [2] [%]	IC50 [3] [nM]
N=C(N)NC(=O)OCc1cccc(N2CCN(c3cccnc3)CC2)c1F [Example 293]	19	59	83	72	60	–
Cc1ccc(OC2CN(c3cccc(COC(=O)NC(=N)N)c3F)C2)cn1 [Example 552]	25	93	81	75	24	5.5
